# Measured affinities in a library of Ab-14 heavy chain variants

The target is the same throughout: PDVDLGDISGINAS, from the HR2 region of SARS-CoV-2 spike.

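Phage display of a naive human antibody library on the peptide gave the parent. Variants in AAYL49 differ from the parent at up to three CDR positions; double and triple changes were sampled at random. The assay is AlphaSeq: two haploid yeast populations carry antibody and antigen on their surface. Mating (16 h, 30 °C) was followed by selection of diploids and sequencing of their barcodes. The ratio of observed to expected reads was calibrated, replicate by replicate, on BCL2-family standards whose Kd was known from biolayer interferometry. The assay was run in three technical replicates.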

Ab-14 is the parent antibody, in scFv form: VH, then a (GGGGS)3 linker, then VL. The light chain is unchanged in all variants.
VH: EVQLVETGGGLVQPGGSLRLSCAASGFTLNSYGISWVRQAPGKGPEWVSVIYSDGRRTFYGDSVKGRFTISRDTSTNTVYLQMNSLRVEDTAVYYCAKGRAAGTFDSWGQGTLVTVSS
VL: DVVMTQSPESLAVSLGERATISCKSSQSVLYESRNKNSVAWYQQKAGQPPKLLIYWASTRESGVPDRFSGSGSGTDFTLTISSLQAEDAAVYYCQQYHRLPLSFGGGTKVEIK

Each variant is given by its three heavy chain CDRs, as the data file delimits them; those of the parent are GFTLNSYGIS, VIYSDGRRTFYGDSVK, GRAAGTFDS. This list gathers variants with a substitution at T28 (VH, numbered from residue 1). Numbers give log10(Kd / nM), so 0 is 1 nM and 3 is 1 µM. Smaller is tighter. The mean shown is taken over the replicates in which the pair was detected. An entry "no signal" has no value in the source: the pair was not observed among the diploids in any replicate. This suggests poor binding but is not conclusive. For reference, the parent read 0.65 as the reference entry and 4.11 (one replicate of three) as a member of this library. Nonspecific signal, from three strains lacking the peptide, appeared in 15% of pairings of library AAYL49, centred on 4.06 (5% of these signals below 2.83); values are not corrected for it.

| CDR-H1 | CDR-H2 | CDR-H3 | mean, log10 nM | replicates with signal |
|---|---|---|---|---|
| GFELNSYGIS | VIYSAGRRTFYGDSVK | GRPAGTFDS | no signal | 0 of 3 |
| GFFKNSYGIS | VIYSDGSRTFYGDSVK | GRAAGTFDS | no signal | 0 of 3 |
| GFLLPSYGIS | VIYSDGRRTFYGDSVK | GRASGTFDS | no signal | 0 of 3 |
| GFDLNSYGIS | VIYYDHRRTFYGDSVK | GRAAGTFDS | 2.91 | 2 of 3 |
| GFSLNSYGIS | VIYSDPRRTFYGDSVY | GRAAGTFDS | no signal | 0 of 3 |
| GFPLFSYGIS | VLYSDGRRTFYGDSVK | GRAAGTFDS | no signal | 0 of 3 |
| GFWLNSYIIS | VIYSDGRRTFYGDSKK | GRAAGTFDS | 1.87 | 1 of 3 |
| GFLLNSFGIS | VIYSDGRRTFYGDSVK | GRAAVTFDS | 2.56 | 3 of 3 |
| GFNLNSYGIS | VIDSDGRRTFYGDSVK | GRAAGTFDV | no signal | 0 of 3 |
| GFMLNSYGIS | VIYSDGRRTFYGDSVK | GRSAGTFDW | no signal | 0 of 3 |
| GFPLNSYGIS | VIYDDGRRTSYGDSVK | GRAAGTFDS | no signal | 0 of 3 |
| GFQKNSYTIS | VIYSDGRRTFYGDSVK | GRAAGTFDS | 4.89 | 2 of 3 |
| GFYLNSYGIS | VIYSDGRRTFYDPSVK | GRAAGTFDS | 1.68 | 3 of 3 |
| GFQLNSYGIS | VEYSDGRRTFYGDSVK | GRAAGTFLS | no signal | 0 of 3 |
| GFDLNSYGIS | CIYSDGRRTFYGDSVK | GRAAGTSDS | 5.41 | 2 of 3 |
| GFPLNSYGIS | VIYSDGYRTFYGDSVK | GRAAGTFDL | 5.05 | 1 of 3 |
| GFRLTSYCIS | VIYSDGRRTFYGDSVK | GRAAGTFDS | 3.25 | 1 of 3 |
| GFRLNSYGIS | VIASDGERTFYGDSVK | GRAAGTFDS | 4.08 | 1 of 3 |
| GFVLNSYGIS | VIYSDGRRTFYGDSVK | VKAAGTFDS | 1.31 | 3 of 3 |
| GFWLNLYGIS | VIYSDFRRTFYGDSVK | GRAAGTFDS | no signal | 0 of 3 |
| GFFLNIYGIL | VIYSDGRRTFYGDSVK | GRAAGTFDS | no signal | 0 of 3 |
| GFLLNSYGIS | VIYSDGRRTFYGDSVK | GRRAGTFMS | no signal | 0 of 3 |
| GFWLNSYGIS | VIYSDGRHTFTGDSVK | GRAAGTFDS | no signal | 0 of 3 |
| MFMLNSYGIS | VIYSDGRRTFYGDSVK | GRAAGTTDS | 3.43 | 1 of 3 |
| GFRLNSYGIS | DEYSDGRRTFYGDSVK | GRAAGTFDS | 4.70 | 2 of 3 |
| GFALNSFYIS | VIYSDGRRTFYGDSVK | GRAAGTFDS | no signal | 0 of 3 |
| GFVLNSYGIS | VIYSDGRRTFGGDDVK | GRAAGTFDS | 4.04 | 1 of 3 |
| GFELNSYGIS | VIYSDGRRTFYGDDVK | GRAKGTFDS | 4.10 | 1 of 3 |
| GFDTNSYGIS | VIYSDGRRTFYGDSVK | GRAHGTFDS | no signal | 0 of 3 |
| GFLLNSYGIS | VIYSDIIRTFYGDSVK | GRAAGTFDS | 4.57 | 2 of 3 |
| GFFLNSYGIS | VIYSDGRRTFYTDSVK | GRAAGTSDS | no signal | 0 of 3 |
| GFILNMYGIS | VIYSDGRRTFYGDSVK | GRAAGRFDS | 5.05 | 2 of 3 |
| GFDLNSYGIS | VIYSDGRRTFYGDSVK | GRAAKTFDD | 0.02 | 3 of 3 |
| GFPLNSYGIS | VIYSDGRRTFYGDSVK | GRAAGTFDS | 0.85 | 3 of 3 |
| GFALNSYGIS | VIYSDGRRTFYGDSVK | QRAACTFDS | no signal | 0 of 3 |
| GFVLQSYGIS | VIYSYGRRTFYGDSVK | GRAAGTFDS | no signal | 0 of 3 |
| GFNLNSTGIS | VIYSDGRRTFYWDSVK | GRAAGTFDS | no signal | 0 of 3 |
| GFYLNSYGIS | VIYSDGRRTFYGDSEK | PRAAGTFDS | no signal | 0 of 3 |
| GFQLNSYGIS | VIYSDGRREFYGDSVK | GRALGTFDS | no signal | 0 of 3 |
| GFMLNSYGIS | VIYSDGRRTFYGDSVK | GRAAGTFDS | 1.17 | 3 of 3 |
| GFGLNSYGIS | VIYSDGRRTFYGQSVK | GRAAGTFDS | 1.82 | 3 of 3 |
| GFMLNSYGIS | VIYSDGRHTFYGDSVK | GRAAGPFDS | no signal | 0 of 3 |
| GFELNSYGIS | VIYSDGFRTFYGDSVK | GRAAGTKDS | no signal | 0 of 3 |
| GFPLNSYGIS | VPYSDFRRTFYGDSVK | GRAAGTFDS | 5.04 | 1 of 3 |
| GFGLNSYGIS | VIYSDGRRRFYGDSVK | GRAPGTFDS | 2.20 | 3 of 3 |
| GFRLNSYGNS | VLYSDGRRTFYGDSVK | GRAAGTFDS | no signal | 0 of 3 |
| GFFLNSYGIS | VIYSDGRRTFYGDSVK | GRADETFDS | 2.48 | 1 of 3 |
| GFDLNSYGIS | VIMSDGRRTFQGDSVK | GRAAGTFDS | 3.95 | 2 of 3 |
| GFNLNSYGIS | VIYSDGRRTFYGDEVK | GRAAGTFDS | 0.55 | 3 of 3 |
| GFGLNAYGIS | VICSDGRRTFYGDSVK | GRAAGTFDS | 2.47 | 1 of 3 |
| GFNLNSYGIS | VIYSDGRRTFYEDSVK | GRAMGTFDS | 4.53 | 1 of 3 |
| GSFLNSYGES | VIYSDGRRTFYGDSVK | GRAAGTFDS | no signal | 0 of 3 |
| GFCTNSYGIS | VIYSDGRRTFYGVSVK | GRAAGTFDS | no signal | 0 of 3 |
| GFPLNSYGIS | VIYCDGRRFFYGDSVK | GRAAGTFDS | 4.25 | 1 of 3 |
| GFPQNSYGIS | VIYFDGRRTFYGDSVK | GRAAGTFDS | 4.13 | 1 of 3 |
| GFPLNSYGIS | VIYSDGRRTFYGDEVK | GRAAGTSDS | 3.06 | 1 of 3 |
| GFRLMSYGWS | VIYSDGRRTFYGDSVK | GRAAGTFDS | no signal | 0 of 3 |
| GFYLNSYGIK | VIYSDGRRTFYGDSVK | GRAAGTFDS | 4.51 | 3 of 3 |
| GINLNSYGIR | VIYSDGRRTFYGDSVK | GRAAGTFDS | no signal | 0 of 3 |

Extract of 6 entries:

| CDR-H1 | CDR-H2 | CDR-H3 | mean, log10 nM | replicates with signal |
|---|---|---|---|---|
| GFWLNSYIIS | VIYSDGRRTFYGDSKK | GRAAGTFDS | 1.87 | 1 of 3 |
| GFNLNSYGIS | VIYSDGRRTFYGDEVK | GRAAGTFDS | 0.55 | 3 of 3 |
| GFELNSYGIS | VIYSDGRRTFYGDDVK | GRAKGTFDS | 4.10 | 1 of 3 |
| GFWLNLYGIS | VIYSDFRRTFYGDSVK | GRAAGTFDS | no signal | 0 of 3 |
| GFVLQSYGIS | VIYSYGRRTFYGDSVK | GRAAGTFDS | no signal | 0 of 3 |
| GFFKNSYGIS | VIYSDGSRTFYGDSVK | GRAAGTFDS | no signal | 0 of 3 |

Reference: Engelhart et al. 2022, doi:10.1038/s41597-022-01779-4. File: FLAb, binding data.